Test results published in patent US20020039725A1, “Fish hatching method and apparatus” (published 2002).

Experiments:
[1] = test system: Selenastrum capricornium; conditions: data from [13], median values of literature citations; cited from earlier work
[2] = test system: Nothobranchius guentheri; assay: Rapid killifish 24 hour acute toxicity test with newly hatched fry
[3] = test system: Daphnia magna; conditions: data from [13], median values of literature citations; cited from earlier work
[4] = test system: Pimephales promelas; conditions: cited from earlier work

For Cc1c([N+](=O)[O-])cc([N+](=O)[O-])cc1[N+](=O)[O-], the “S. capricornium 96-h EC50” value [1] is given as 2.0 µg/mL, the “N. guentheri 24-HR LC50” value ([2]; Example 4 table, trimmed Spearman-Karber) is given as 6.33 µg/mL and the “N. guentheri 24-HR EC50” value ([2]; Example 4 table, trimmed Spearman-Karber (moving average for TNT, SDS)) is given as 3.34^c mg/L. For the same compound, the “N. guentheri 24-h EC50” value ([2]; median effective concentration (stress), 24 hours, 25° C., trimmed Spearman-Karber unless noted (moving-average for 2,4-D, SDS)) was 3.4 µg/mL, the “N. guentheri 24-h LC50” value ([2]; median lethal concentration (death), 24 hours, fry 24 h post hatch, 25° C., trimmed Spearman-Karber unless noted) was 6.3 µg/mL and the “D. magna 48-h LC50” value [3] was 12 µg/mL. For the same compound, the “P. promelas 96-hr LC50” value ([4]; Example 4 table, mean LC50 from Toussaint et al., 1995) was 3.1 µg/mL and the “P. promelas 96-h LC50” value ([4]; data from [13], median values of literature citations) was 3.1 µg/mL.

This is a selection: effects in other tests are not listed, and their absence says nothing. Marks after values point to notes of the source that are not given here.
